We go through 1 molecule from publication PMC8284473, “Preliminary Characterization of NP339, a Novel Polyarginine Peptide with Broad Antifungal Activity” (Antimicrobial Agents and Chemotherapy, 2021).

Values after ≈ are worked out from the molar mass of the structure shown.

The test relates to C. albicans NCTC 3179. The test is classed as cell-based, Candida albicans. The following applies: NCTC 3179, 24 h.

The molecule `N=C(N)NCCC[C@H](NC(=O)[C@H](CCCNC(=N)N)NC(=O)[C@H](CCCNC(=N)N)NC(=O)[C@H](CCCNC(=N)N)NC(=O)[C@H](CCCNC(=N)N)NC(=O)[C@H](CCCNC(=N)N)NC(=O)[C@H](CCCNC(=N)N)NC(=O)[C@H](CCCNC(=N)N)NC(=O)[C@H](CCCNC(=N)N)NC(=O)[C@H](CCCNC(=N)N)NC(=O)[C@H](CCCNC(=N)N)NC(=O)[C@H](CCCNC(=N)N)NC(=O)[C@H](CCCNC(=N)N)NC(=O)[C@H](CCCNC(=N)N)NC(=O)[C@@H](N)CCCNC(=N)N)C(=O)O` came in with an MIC of 2 µM (≈ 4.72 µg/mL).

The term MIC denotes the least concentration at which growth counts as inhibited. Low values mean a more susceptible organism, high ones a less susceptible organism.
